1 substance from patent US20220305015A1, “COMBINATORIAL THERAPY TARGETING PARP1 AND RTK” (Board of Regents, The University of Texas System, priority 2019, published 2022) can be followed below.

The chains behind the UniProt entries cited, without tags or fusion partners. Residues count along the entry.
UniProt P22607, 23-806: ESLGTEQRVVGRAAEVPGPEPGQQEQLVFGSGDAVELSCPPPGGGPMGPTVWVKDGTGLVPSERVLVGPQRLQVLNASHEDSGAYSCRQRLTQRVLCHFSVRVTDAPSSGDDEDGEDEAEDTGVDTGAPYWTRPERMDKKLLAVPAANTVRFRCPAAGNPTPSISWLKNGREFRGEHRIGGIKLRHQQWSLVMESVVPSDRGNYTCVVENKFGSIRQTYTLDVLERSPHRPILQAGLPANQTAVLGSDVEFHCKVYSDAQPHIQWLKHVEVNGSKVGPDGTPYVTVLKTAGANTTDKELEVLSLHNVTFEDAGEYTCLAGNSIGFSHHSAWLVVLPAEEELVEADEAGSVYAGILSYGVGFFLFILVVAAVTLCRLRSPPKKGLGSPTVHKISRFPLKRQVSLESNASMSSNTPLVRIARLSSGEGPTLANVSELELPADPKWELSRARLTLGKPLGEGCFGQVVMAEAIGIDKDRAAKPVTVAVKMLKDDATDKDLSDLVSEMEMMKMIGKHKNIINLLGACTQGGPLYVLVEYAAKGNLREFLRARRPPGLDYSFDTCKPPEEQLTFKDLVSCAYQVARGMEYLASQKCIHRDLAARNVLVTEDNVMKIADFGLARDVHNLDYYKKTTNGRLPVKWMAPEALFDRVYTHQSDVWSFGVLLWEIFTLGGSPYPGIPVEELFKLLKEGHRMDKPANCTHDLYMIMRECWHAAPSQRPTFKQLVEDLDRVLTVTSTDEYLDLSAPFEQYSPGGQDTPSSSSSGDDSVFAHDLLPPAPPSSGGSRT

This experiment addresses T1, FGFR3 (Homo sapiens, UniProt P22607).
T1 construct: endogenous in cells; host or cells: SUM149 parental cells and SUM149-derived talazoparib-resistant BR cells (BR#09, BR#17)
As to the kind of experiment: Western blot of FGFR phosphorylation in cells treated with MMS and talazoparib. As to conditions: BR# 09 and BR# 17 cells; 5 μM FGFRi. Format: cell-based. Background: Immunoblotting shows a protein as a band on a membrane.

With AZD4547, the “FGFR phosphorylation in response to MMS and talazoparib” value was “inhibited”.
